Results on 27 molecules are retold here after patent publication US9315491B2 (DEVELOPMENT CENTER FOR BIOTECHNOLOGY, priority 2009, dated 2016).

As usually defined, the IC50 is the concentration at which inhibition is half-maximal.

The subject of one assay is A549 cells. Put plainly: Antiproliferation assay (MTS), A549. The conditions noted are these: Homo sapiens; A549, 72 hours of drug treatment. The class given is cell-based.
A further assay deals with PC-3 cells. Put plainly: Antiproliferation assay (MTS), PC-3. The conditions noted are these: Homo sapiens, PC3, 72 hours of drug treatment. In kind it is cell-based. On the procedure: (1) Antiproliferation Assay
PC-3, U-87 MG, HCC1954 and BT474 cell lines were purchased from the American Type Culture Collection (ATCC, USA). PC-3 was grown in F12K medium (GIBCO) containing 10% FBS. U-87 MG was grown in Eagle's minimum essential medium (MEM, Sigma) supplemented with nonessential amino acids, L-glutamine, sodium pyruvate, and 10% FBS. HCC1954 was grown in RPMI medium (GIBCO) containing 10% FBS. […] All cells were incubated in a humidified atmosphere containing 5% CO2 at 37° C.
Cell lines were inoculated to the wells of a 96-well culture plate with 1000-5000 cells per well. The compounds were prepared and used to treat cells with less than 1% DMSO. After 72 hours of drug treatment, the viability of each cell line was examined by CellTiter 96 Aqueous Non-Radioactive Cell Proliferation Assay (Promega). The living cells were detectable by conversion of MTS into aqueous, soluble formazan. MTS/PMS solution was freshly prepared and 20 μl of MTS/PMS solution was added to each well of the 96-well cultured plate. The assay plate was incubated for 3 hours and the absorbance at 490 nm was measured by EMax ELISA Reader (Molecular Devices). The IC50 values of compounds were determined after carrying out assays at eight serially diluted concentrations of each compound in triplicate, and are the mean of three separate determinations. The results were analyzed using linear regression software (GraphPad Prism 5; GraphPad Software Inc.).

As for `CSc1c(-c2ccncc2)nc(-c2ccc(NC(N)=O)cc2)nc1N1CCOCC1` [MTR-0388, [4-(5-Methylsulfanyl-4-morpholin-4-yl-6-pyridin-4-yl-pyrimidin-2-yl)-phenyl]-urea], the IC50 in the assay on A549 cells was found to be 250 ± 8 nM; in the assay on PC-3 cells it was 136 ± 3 nM.
Take `CSc1c(-c2ccncc2)nc(-c2ccc(NC(=O)Nc3ccc(N4CCOCC4=O)cc3)cc2)nc1N1CCOCC1` [MTR-0391, 1-[4-(5-Methylsulfanyl-4-morpholin-4-yl-6-pyridin-4-yl-pyrimidin-2-yl)-phenyl]-3-[4-(3-oxo-morpholin-4-yl)-phenyl]-urea]: the IC50 with A549 cells was 6 nM; with PC-3 cells it was 8 nM.
Turning to `CSc1c(-c2ccncc2)nc(-c2ccc(NC(=O)Nc3ccc(C(N)=O)cc3)cc2)nc1N1CCOCC1` [MTR-0392, 4-{3-[4-(5-Methylsulfanyl-4-morpholin-4-yl-6-pyridin-4-yl-pyrimidin-2-yl)-phenyl]-ureido}-benzamide], the results for the IC50 with A549 cells and in the assay with PC-3 cells were 188 ± 7 nM and 22 nM, respectively.
The corresponding values for `C[S+]([O-])c1cnc(-c2ccc(NC(=O)Nc3ccc(N4CCOCC4=O)cc3)cc2)nc1N1CCOCC1` (stereo not drawn) [MTR-0401, 1-[4-(5-Methanesulfinyl-4-morpholin-4-yl-pyrimidin-2-yl)-phenyl]-3-[4-(3-oxo-morpholin-4-yl)-phenyl]-urea] are 685 ± 35 nM and 169 ± 3 nM.
The corresponding values for `CSc1cnc(-c2ccc(NC(=O)Nc3ccc(S(C)(=O)=O)cc3)cc2)nc1N1CCOCC1` [MTR-0404, 1-(4-Methanesulfonyl-phenyl)-3-[4-(5-methylsulfanyl-4-morpholin-4-yl-pyrimidin-2-yl)-phenyl]-urea] are 273 ± 1 nM and 109 nM.
The matching figures for `COc1cnc(-c2ccc(NC(=O)Nc3ccc(N4CCOCC4=O)cc3)c(F)c2)nc1N1CCOCC1` [MTR-0405, 1-[2-Fluoro-4-(5-methoxy-4-morpholin-4-yl-pyrimidin-2-yl)-phenyl]-3-[4-(3-oxo-morpholin-4-yl)-phenyl]-urea]: 88 ± 6 nM and 74 ± 2 nM.
With `COc1cnc(-c2ccc(NC(=O)Nc3ccc(N4CCOCC4=O)cc3)cc2F)nc1N1CCOCC1` [MTR-0406, 1-[3-Fluoro-4-(5-methoxy-4-morpholin-4-yl-pyrimidin-2-yl)-phenyl]-3-[4-(3-oxo-morpholin-4-yl)-phenyl]-urea], the values for the concentration for half-maximal inhibition (IC50) in the assay on A549 cells and with PC-3 cells were greater than 10000 nM and 285 ± 5 nM, respectively.
The matching figures for `COc1cnc(-c2ccc(NC(=O)Nc3ccc(C(N)=O)cc3)cc2F)nc1N1CCOCC1` [MTR-0407, 4-{3-[3-Fluoro-4-(5-methoxy-4-morpholin-4-yl-pyrimidin-2-yl)-phenyl]-ureido}-benzamide]: greater than 10000 nM and 386 ± 16 nM.
The corresponding values for `CCOc1cnc(-c2ccc(NC(=O)Nc3ccc(N4CCN(S(C)(=O)=O)CC4)cc3)cc2)nc1N1CCOCC1` [MTR-0420, 1-[4-(5-Ethoxy-4-morpholin-4-yl-pyrimidin-2-yl)-phenyl]-3-[4-(4-methanesulfonyl-piperazin-1-yl)-phenyl]-urea] are 234 ± 1 nM and 148 ± 2 nM.
The matching figures for `CCOc1cnc(-c2ccc(NC(=O)Nc3ccc(C(=O)N4CCOCC4)cc3)cc2)nc1N1CCOCC1` [MTR-0421, 1-[4-(5-Ethoxy-4-morpholin-4-yl-pyrimidin-2-yl)-phenyl]-3-[4-(morpholine-4-carbonyl)-phenyl]-urea]: 87 ± 1 nM and 37 ± 1 nM.
Consider `CCOc1cnc(-c2ccc(NC(=O)Nc3ccc(S(C)(=O)=O)cc3)cc2)nc1N1CCOCC1` [MTR-0424, 1-[4-(5-Ethoxy-4-morpholin-4-yl-pyrimidin-2-yl)-phenyl]-3-(4-methanesulfonyl-phenyl)-urea], for which the IC50 worked out at 118 ± 2 nM with A549 cells and 51 ± 1 nM in the assay with PC-3 cells.
The corresponding values for `COc1cnc(-c2ccc(NC(=O)Nc3cccc(NC(C)=O)c3)cc2)nc1N1CCOCC1` [MTR-0426, N-(3-{3-[4-(5-Methoxy-4-morpholin-4-yl-pyrimidin-2-yl)-phenyl]-ureido}-phenyl)-acetamide] are 962 ± 58 nM and 282 ± 11 nM.
The corresponding values for `COc1cnc(-c2ccc(NC(=O)Nc3ccc(C(=O)NCCCN(C)C)cc3)cc2)nc1N1CCOCC1` [MTR-0427, N-(3-Dimethylamino-propyl)-4-{3-[4-(5-methoxy-4-morpholin-4-yl-pyrimidin-2-yl)-phenyl]-ureido}-benzamide] are 1800 ± 52 nM and 125 ± 2 nM.
With `CSc1c(Cl)nc(-c2ccc(NC(=O)Nc3ccc(C(=O)N4CCC(N(C)C)CC4)cc3)cc2)nc1N1CCOCC1` [MTR-0436, 1-[4-(4-Chloro-5-methylsulfanyl-6-morpholin-4-yl-pyrimidin-2-yl)-phenyl]-3-[4-(4-dimethylamino-piperidine-1-carbonyl)-phenyl]-urea], the IC50 in the assay on A549 cells is 299 ± 10 nM; with PC-3 cells, 78 ± 4 nM.
The matching figures for `CSc1c(-c2cccnc2)nc(-c2ccc(NC(=O)Nc3ccccc3)cc2)nc1N1CCOCC1` [MTR-0438, 1-[4-(5-Methylsulfanyl-4-morpholin-4-yl-6-pyridin-3-yl-pyrimidin-2-yl)-phenyl]-3-phenyl-urea]: 116 ± 4 nM and 48 ± 1 nM.
As to `CCOc1cnc(-c2ccc(NC(=O)Nc3ccc(NC(C)=O)nc3)cc2)nc1N1CCOCC1` [MTR-0442, N-(5-{3-[4-(5-Ethoxy-4-morpholin-4-yl-pyrimidin-2-yl)-phenyl]-ureido}-pyridin-2-yl)-acetamide], the IC50 amounted to 392 ± 15 nM with A549 cells and 110 ± 10 nM in the assay on PC-3 cells.
The corresponding values for `CCOC(=O)c1nc(-c2ccc(NC(=O)Nc3ccc(NC(C)=O)nc3)cc2)nc(N2CCOCC2)c1OCC` [MTR-0443, 2-{4-[3-(6-Acetylamino-pyridin-3-yl)-ureido]-phenyl}-5-ethoxy-6-morpholin-4-yl-pyrimidine-4-carboxylic acid ethyl ester] are 529 ± 7 nM and 131 ± 6 nM.
The corresponding values for `CCOc1cnc(-c2ccc(NC(=O)Nc3ccncc3)cc2)nc1N1CCOCC1` [MTR-0446, 1-[4-(5-Ethoxy-4-morpholin-4-yl-pyrimidin-2-yl)-phenyl]-3-pyridin-4-yl-urea] are 379 ± 13 nM and 130 ± 8 nM.
The corresponding values for `COc1cnc(-c2ccc(NC(=O)Nc3ccc(NS(C)(=O)=O)cc3)cc2)nc1N1CCOCC1` [MTR-0449, N-(4-{3-[4-(5-Methoxy-4-morpholin-4-yl-pyrimidin-2-yl)-phenyl]-ureido}-phenyl)-methanesulfonamide] are 1050 ± 12 nM and 95 ± 7 nM.
As to `CCOc1cnc(-c2ccc(NC(=O)Nc3ccc(S(=O)(=O)N4CCOCC4)cc3)cc2)nc1N1CCOCC1` [MTR-0452, 1-[4-(5-Ethoxy-4-morpholin-4-yl-pyrimidin-2-yl)-phenyl]-3-[4-(morpholine-4-sulfonyl)-phenyl]-urea], the IC50 is 82 ± 3 nM in the assay with A549 cells and 32 ± 1 nM in the assay with PC-3 cells.
The corresponding values for `CSc1c(-c2ccncc2)nc(-c2ccc(NC(=O)Nc3ccncc3)cc2)nc1N1CCOCC1` [MTR-0453, 1-[4-(5-Methylsulfanyl-4-morpholin-4-yl-6-pyridin-4-yl-pyrimidin-2-yl)-phenyl]-3-pyridin-4-yl-urea] are 206 ± 1 nM and 56 ± 2 nM.
With `O=C(Nc1ccc(C(=O)N2CCOCC2)cc1)Nc1ccc(-c2ncc(OCCN3CCOCC3)c(N3CCOCC3)n2)cc1` [MTR-0454, 1-[4-(Morpholine-4-carbonyl)-phenyl]-3-{4-[4-morpholin-4-yl-5-(2-morpholin-4-yl-ethoxy)-pyrimidin-2-yl]-phenyl}-urea], the results for the IC50 with A549 cells and in the assay with PC-3 cells were 215 ± 1 nM and 54 ± 1 nM, respectively.
The matching figures for `O=C(Nc1ccc(-c2ncc(OCCN3CCOCC3)c(N3CCOCC3)n2)cc1)Nc1ccc(N2CCOCC2=O)cc1` [MTR-0455, 1-{4-[4-Morpholin-4-yl-5-(2-morpholin-4-yl-ethoxy)-pyrimidin-2-yl]-phenyl}-3-[4-(3-oxo-morpholin-4-yl)-phenyl]-urea]: 309 ± 16 nM and 72 ± 2 nM.
As for `NC(=O)c1ccc(NC(=O)Nc2ccc(-c3ncc(OCCN4CCOCC4)c(N4CCOCC4)n3)cc2)cc1` [MTR-0456, 4-(3-{4-[4-Morpholin-4-yl-5-(2-morpholin-4-yl-ethoxy)-pyrimidin-2-yl]-phenyl}-ureido)-benzamide], the values for the IC50 with A549 cells and in the assay on PC-3 cells were 2090 ± 34 nM and 362 ± 25 nM, respectively.
The corresponding values for `CSc1c(-c2cccnc2)nc(-c2ccc(NC(=O)Nc3ccc(N4CCOCC4=O)cc3)cc2)nc1N1CCOCC1` [MTR-0457, 1-[4-(5-Methylsulfanyl-4-morpholin-4-yl-6-pyridin-3-yl-pyrimidin-2-yl)-phenyl]-3-[4-(3-oxo-morpholin-4-yl)-phenyl]-urea] are 11 ± 0.2 nM and 6.5 ± 0.3 nM.
The matching figures for `CSc1cnc(-c2ccc(NC(=O)Nc3ccc(C(=O)N4CCOCC4)cc3)cc2)nc1N1CCOCC1` [MTR-0461, 1-[4-(5-Methylsulfanyl-4-morpholin-4-yl-pyrimidin-2-yl)-phenyl]-3-[4-(morpholine-4-carbonyl)-phenyl]-urea]: 177 ± 3 nM and 64 ± 2 nM.
The matching figures for `CSc1cnc(-c2ccc(NC(=O)Nc3ccncc3)cc2)nc1N1CCOCC1` [MTR-0462, 1-[4-(5-Methylsulfanyl-4-morpholin-4-yl-pyrimidin-2-yl)-phenyl]-3-pyridin-4-yl-urea]: 448 ± 23 nM and 182 ± 6 nM.
